# scFv variants of Ab-95 (light chain) against a SARS-CoV-2 spike peptide

Reference: Engelhart et al. 2022, doi:10.1038/s41597-022-01779-4. File: FLAb, binding data.

Antigen: PDVDLGDISGINAS, a 14-residue peptide of the SARS-CoV-2 spike HR2 region.

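In library AAYL52, one, two or three CDR residues were substituted; doubles and triples were drawn at random. AlphaSeq pools MATa yeast showing the antibodies with MATalpha yeast showing the peptide. Binding brings cells together so that they mate, and sequencing counts the barcode pairs among the diploids. Read counts were normalised to the haploid input and turned into Kd by a linear fit to BCL2-family pairs of known affinity, for each replicate. The assay was run in three technical replicates.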

Parent: Ab-95, a human scFv built as VH, a (GGGGS)3 linker, VL. Only the CDRs of the light chain vary.
VH: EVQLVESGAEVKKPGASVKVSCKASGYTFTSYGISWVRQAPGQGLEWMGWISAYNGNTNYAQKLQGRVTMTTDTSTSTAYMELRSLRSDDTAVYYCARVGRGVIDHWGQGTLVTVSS
VL: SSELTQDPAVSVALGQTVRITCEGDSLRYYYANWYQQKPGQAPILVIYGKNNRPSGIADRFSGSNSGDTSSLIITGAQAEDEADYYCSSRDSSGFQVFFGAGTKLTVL

Positions count from residue 1 of the parent VL; K50Y puts Y in place of K.
Only single mutants are listed, position by position.
Affinities are written as log10 Kd with Kd in nM; a lower number is a better binder.
A mean of the replicates is given; it leaves out those without a signal.
"nd" marks a missing value. The strain was present, yet no cells mated with the target were sequenced in any replicate, which points to weak or no binding.
Background: pairings of library AAYL52 with three empty control strains gave a value in 28% of cases (median 3.91, 5th percentile 2.90). Values in that range, when seen in few replicates, are hard to tell from nonspecific mating.
For reference, the parent read 2.31 as the reference entry and 2.25 as a member of this library.

changes,"log10 Kd (nM), mean",detected
K50Y,2.91,3 of 3
K50P,2.34,3 of 3
K50C,2.69,3 of 3
K50L,2.70,3 of 3
K50M,2.49,3 of 3
K50R,2.24,3 of 3
K50G,2.64,3 of 3
N51D,2.41,3 of 3
N51H,3.47,2 of 3
N51A,2.56,3 of 3
N51K,3.37,2 of 3
N51C,4.72,2 of 3
N51S,2.73,3 of 3
N51Q,2.73,3 of 3
N51F,4.68,2 of 3
N51G,1.93,3 of 3
N51L,3.04,3 of 3
N51R,4.36,1 of 3
N51I,nd,0 of 3
N51W,nd,0 of 3
N51T,3.12,3 of 3
N51Y,3.13,3 of 3
N51V,3.29,3 of 3
N51E,2.81,3 of 3
N51M,2.92,3 of 3
N51P,3.01,1 of 3
N52L,1.93,3 of 3
N52W,2.56,3 of 3
N52C,nd,0 of 3
N52H,2.84,3 of 3
N52Q,1.67,3 of 3
N52V,2.53,3 of 3
N52D,1.83,3 of 3
N52Y,2.24,3 of 3
N52R,3.39,3 of 3
N52F,2.43,3 of 3
N52S,1.39,3 of 3
N52G,1.88,3 of 3
N52K,2.98,3 of 3
N52I,2.36,3 of 3
N52E,1.20,3 of 3
N52M,1.92,3 of 3
N52P,5.48,1 of 3
N52A,1.67,3 of 3
N52T,1.76,3 of 3
R53Q,3.26,3 of 3
R53P,3.29,1 of 3
R53S,2.66,3 of 3
R53Y,3.46,2 of 3
R53W,4.49,2 of 3
R53G,2.47,3 of 3
R53N,2.11,3 of 3
R53M,2.69,3 of 3
R53H,2.21,3 of 3
R53D,3.21,1 of 3
R53A,2.66,3 of 3
R53V,2.95,3 of 3
R53F,3.45,1 of 3
R53K,2.36,3 of 3
R53C,3.64,2 of 3
R53E,3.71,3 of 3
R53I,2.41,3 of 3
R53L,2.72,3 of 3
R53T,2.48,3 of 3
P54M,2.17,3 of 3
P54K,2.80,3 of 3
P54A,1.48,3 of 3
P54L,2.90,3 of 3
P54V,2.43,3 of 3
P54Y,3.08,3 of 3
P54E,2.68,3 of 3
P54Q,2.09,3 of 3
P54N,3.82,3 of 3
P54I,2.40,3 of 3
P54F,2.81,2 of 3
P54S,2.19,3 of 3

Excerpt, the final 6 entries:

changes	log10 Kd (nM), mean	detected
P54E	2.68	3 of 3
P54Q	2.09	3 of 3
P54N	3.82	3 of 3
P54I	2.40	3 of 3
P54F	2.81	2 of 3
P54S	2.19	3 of 3